Measured values: PMC9822396 (Molecules, 2022)

The chains behind the UniProt entries cited, without tags or fusion partners. Residues count along the entry.
UniProt P27338, whole entry: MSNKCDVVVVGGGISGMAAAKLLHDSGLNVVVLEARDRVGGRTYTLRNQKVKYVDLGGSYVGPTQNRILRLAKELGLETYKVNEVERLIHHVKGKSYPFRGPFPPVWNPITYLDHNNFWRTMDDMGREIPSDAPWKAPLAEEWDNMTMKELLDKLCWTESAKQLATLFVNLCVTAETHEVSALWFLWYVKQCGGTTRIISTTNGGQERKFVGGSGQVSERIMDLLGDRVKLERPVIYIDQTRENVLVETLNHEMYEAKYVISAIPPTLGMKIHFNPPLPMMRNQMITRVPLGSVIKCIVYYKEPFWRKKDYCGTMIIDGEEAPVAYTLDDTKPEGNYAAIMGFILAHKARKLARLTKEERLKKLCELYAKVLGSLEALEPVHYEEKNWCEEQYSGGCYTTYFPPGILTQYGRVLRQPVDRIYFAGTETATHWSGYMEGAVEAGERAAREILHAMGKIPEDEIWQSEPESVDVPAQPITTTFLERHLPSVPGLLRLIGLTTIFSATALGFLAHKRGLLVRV
UniProt O42275, 24-633: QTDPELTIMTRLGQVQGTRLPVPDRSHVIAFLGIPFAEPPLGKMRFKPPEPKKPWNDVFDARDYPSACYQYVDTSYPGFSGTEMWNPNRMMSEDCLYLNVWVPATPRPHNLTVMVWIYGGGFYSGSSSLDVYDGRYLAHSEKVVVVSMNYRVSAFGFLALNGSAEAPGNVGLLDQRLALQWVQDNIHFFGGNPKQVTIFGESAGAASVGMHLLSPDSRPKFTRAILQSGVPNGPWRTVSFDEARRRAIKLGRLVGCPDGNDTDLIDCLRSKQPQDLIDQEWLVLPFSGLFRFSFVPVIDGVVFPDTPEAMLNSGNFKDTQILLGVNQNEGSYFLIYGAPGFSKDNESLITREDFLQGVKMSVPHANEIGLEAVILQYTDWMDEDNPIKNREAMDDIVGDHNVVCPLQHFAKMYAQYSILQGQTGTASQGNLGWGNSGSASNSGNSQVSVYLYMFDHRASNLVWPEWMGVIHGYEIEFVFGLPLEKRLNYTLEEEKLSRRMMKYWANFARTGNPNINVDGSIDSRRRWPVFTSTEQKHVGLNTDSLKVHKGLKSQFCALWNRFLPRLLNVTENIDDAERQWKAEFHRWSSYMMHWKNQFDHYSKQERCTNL
UniProt P81908, whole entry: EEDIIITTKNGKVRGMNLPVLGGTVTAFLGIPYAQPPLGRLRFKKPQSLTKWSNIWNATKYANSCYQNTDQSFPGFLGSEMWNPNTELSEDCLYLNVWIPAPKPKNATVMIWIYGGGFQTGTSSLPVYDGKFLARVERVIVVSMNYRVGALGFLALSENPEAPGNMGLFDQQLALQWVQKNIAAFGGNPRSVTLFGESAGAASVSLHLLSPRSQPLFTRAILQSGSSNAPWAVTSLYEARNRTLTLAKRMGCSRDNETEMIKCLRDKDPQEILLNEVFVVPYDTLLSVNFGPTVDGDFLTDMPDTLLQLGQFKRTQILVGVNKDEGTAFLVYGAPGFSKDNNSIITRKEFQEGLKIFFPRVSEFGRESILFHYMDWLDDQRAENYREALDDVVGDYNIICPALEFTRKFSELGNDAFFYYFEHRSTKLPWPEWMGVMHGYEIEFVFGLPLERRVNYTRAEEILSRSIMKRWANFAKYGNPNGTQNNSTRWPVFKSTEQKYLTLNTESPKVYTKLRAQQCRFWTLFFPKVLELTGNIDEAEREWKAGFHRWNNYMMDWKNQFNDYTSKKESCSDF

Columns and labels:
hMAO-B [1] = biological target: T1, hMAO-B (Homo sapiens, UniProt P27338); format: biochemical; details: hMAO-B selectivity: IC50 of hMAO-A divided by IC50 of hMAO-B
T1 construct: purchased Sigma-Aldrich
Experimental: (§1) All other chemicals were of reagent grade.
(§2) hMAO-A and -B activities were determined using a continuous spectrophotometric method, as described previously. […] AChE and BChE activities were assayed as described by Ellman et al., with slight modification. Reactions were performed using AChE and BChE in the 0.5 mL reaction mixtures including 0.5 mM substrate (ATCI and BTCI, respectively) and color reagent (DTNB). […] Reaction rates are expressed as changes in absorbance per min.. Inhibitory activities of AChE and BChE were measured after preincubating enzyme with inhibitors for 15 min before adding DTNB and each substrate. […]

AChE = biological target: T2, AChE (Electrophorus electricus, UniProt O42275); assay: AChE inhibition (Ellman method); format: biochemical; details: read-out: Residual Activity at 10 µM (%) AChE
T2 construct: purchased Sigma-Aldrich
Experimental: as §1, §2

BChE = biological target: T3, BChE (Equus caballus, UniProt P81908); assay: BChE inhibition (Ellman method); format: biochemical, equine; details: read-out: Residual Activity at 10 µM (%) BChE
T3 construct: BChE from equine serum; purchased Sigma-Aldrich; host or cells: equine serum
Experimental: as §1, §2

hMAO-B [2] = biological target: T1, hMAO-B; details: read-out: hMAO-B inhibitory activity; cited from earlier work

| SMILES | SI (hMAO-B [1]) | remaining activity at 10 µM (AChE) [%] | remaining activity at 10 µM (BChE) [%] | IC50 (hMAO-B [2]) [nM] |
| --- | --- | --- | --- | --- |
| COc1cc([C@H]2OC[C@H]3[C@@H]2CO[C@@H]3c2cc(OC)c(O)c(OC)c2)cc(OC)c1O [Compound 5, (+)-syringaresinol] | >1.64 | 84.49 ± 0.75 | 99.41 ± 0.83 |  |
| COc1ccc(-c2cc(=O)c3c(O)cc(O)cc3o2)cc1 [acacetin] |  |  |  | 170 |
